Bioassay records from PubChem.
miR-21 reporter: miR-21 reporter, rising signal | Potency, µM (highest dose often 38.3 µM), for inactives: at the highest dose reporter change, positive = more light | 340,000 tested, under 10 active | HeLa miR-21 FLuc reporter, luciferase, 48 h; active = well fitted rising curve with a large enough effect; inconclusive = small, poorly fitted or top-dose-only effect; inactive = no such curve, though single readings can be large or run the other way;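 note: % of control where 0% means no effect; miR-21 action dims this reporter so a rising signal means less miR-21 action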
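HeLa cells endogenously expressing miR-21, stably carrying CMV-driven firefly luciferase with a downstream miR-21 binding site, 2000 cells/well. Titrations up to approximately 40 uM, 48 hours; luciferase luminescence read.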
G9a inh: blocks human histone lysine methyltransferase G9a; Q96KQ7; G9a H3K9 monomethylation, AlphaScreen, 2 h; Potency, µM (series often up to 102 µM), inactives show at the highest dose activity, negative = inhibition, usual class: inhibitors; hit rate 8.8% among 350,000; AID 504332; further: potency means the concentration at half of the fitted maximal effect; on the % scale 0 is the no-effect control and ±100 the full control effect; nearly all actives have a fitted effect of over 75% in size
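Step 1: enzyme (final 20 nM) with compound, 15 min RT. Step 2: substrate peptide 500 nM and SAM 20 uM, 2 h RT. Step 3: anti-H3K9me1 antibody and AlphaScreen beads, 10 min, then plate read.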
Lamin A splicing: changes lamin A minigene splicing in HeLa cells. HeLa LMNA splicing GFP/RFP minigene ratio, 48 h. Potency, µM (highest dose often 46.1 µM), for the others: at the highest dose ratio change, negative = inhibition, usual class: inhibitors. hit rate 0.01% among 200,000. AID 1487; active means well fitted inhibition curve with a large enough effect in the signal ratio, with a control signal flat, not every such curve was filed as active; inconclusive means small, poorly fitted or top-dose-only effect, or effect the other way, or a change in a side signal; the % refers to the signal ratio; further: potency means the concentration at half of the fitted maximal effect; on the % scale 0 is the no-effect control and ±100 the full control effect
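Read-out is the ratio of GFP to DsRed2 object intensity, acquired by 488 nm laser-scanning cytometry on HeLa lamin A-EGFP minigene reporter cells. Compound incubation 48 hrs at 37 °C in Opti-MEM with 2% FBS; DMSO 0.5% final.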
Sfp inh: Sfp phosphopantetheinyl transferase inhibition | Q9F4F7 | Biochemical Sfp PPTase activity, qHTS | Potency, µM, inactives show max response, negative = inhibition, usual class: inhibitors | actives 3.5% (n = 310,000) | AID 1490; active = well fitted inhibition curve with a large enough effect; inconclusive = small, poorly fitted or top-dose-only effect, or another doubt; inactive = no such curve, though single readings can be large or run the other way;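 also: the enzyme is Sfp with the accession as filed and its product quenches rhodamine fluorescence; potency is read from the fitted curve at half-maximal effect; 0% = enzyme reaction without inhibitor and -100% = no enzyme wells; top concentration of the series not given in the record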
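Buffer: 50 mM Hepes-Na pH 7.6, 10 mM MgCl2, 0.01% Nonidet P-40, 0.01% BSA. Enzyme 15 nM, pre-exposed to compound 15 min; substrates then added and fluorescence change tracked over 30 min.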
KDM4E inh: inhibitors of human JMJD2E histone demethylase | AID 2147 | B2RXH2 | Potency, µM (highest dose often 57.1 µM), for the others: at the highest dose activity change, negative = inhibition, most hits filed as inhibitors | hit rate 1.6% among 230,000 | JMJD2E catalytic domain, FDH-coupled NADH fluorescence (FDH is formaldehyde dehydrogenase);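 further: potency means the concentration at half of the fitted maximal effect; 0% = wells with enzyme and -100% = buffer wells without enzyme; nearly all actives have a fitted effect of over 50% in size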
ALDH1A1 inh: ALDH1A1 (human) enzyme inhibition. hit rate 7.3% among 220,000. P00352. Purified ALDH1A1, NADH fluorescence, propionaldehyde substrate. Potency, µM (highest dose often 75.3 µM), without a hit: at the top dose activity, negative = inhibition, usual class: inhibitors; active means well fitted inhibition curve with a large enough effect, not every such curve was filed as active; inconclusive means small, poorly fitted or top-dose-only effect, or another doubt; inactive means no such curve, though single readings can be large or run the other way;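 further: potency means the concentration at half of the fitted maximal effect; plate controls were no enzyme wells and a reference inhibitor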
* = called active by the depositor; ? = inconclusive; nt = not tested or not shown; [ ] = dose if it differs, or a comment. Shown are actives, neighbours in structure and some others; about 13% of the full set was active somewhere. Unless noted, the call rests on the fitted dose curve; in most records, active means well fitted curve in the direction sought with a large enough effect; inconclusive means small, poorly fitted or top-dose-only effect, or another doubt; inactive means no such curve, though single readings can be large; an effect the other way counts as inactive or inconclusive.

Preview:
1	CCN1CCN(c2ccc(S(=O)(=O)N3CCCCC3)cc2NC(=O)/C=C/c2ccc([N+](=O)[O-])cc2)CC1
2	CCN1CCN(c2ccc(S(=O)(=O)N3CCCCC3)cc2NC(=O)/C=C/c2ccc(F)cc2)CC1
3	CCN1CCN(c2ccc(S(=O)(=O)N3CCOCC3)cc2NC(=O)/C=C/c2ccc(C)cc2)CC1

Compound	1	2	3
miR-21 reporter	nt	nt	nt
G9a inh	18µM*	1.3µM*	16%[0.501 µM]
Lamin A splicing	nt	nt	nt
Sfp inh	nt	nt	nt
KDM4E inh	nt	nt	nt
ALDH1A1 inh	nt	nt	nt

This part in full, from the start:
1	CCN1CCN(c2ccc(S(=O)(=O)N3CCCCC3)cc2NC(=O)/C=C/c2ccc([N+](=O)[O-])cc2)CC1
2	CCN1CCN(c2ccc(S(=O)(=O)N3CCCCC3)cc2NC(=O)/C=C/c2ccc(F)cc2)CC1
3	CCN1CCN(c2ccc(S(=O)(=O)N3CCOCC3)cc2NC(=O)/C=C/c2ccc(C)cc2)CC1
4	CCN1CCN(c2ccc(S(=O)(=O)N3CCCCC3)cc2NC(=O)/C=C/c2cccc(OC)c2OC)CC1
5	CN1CCN(c2ccc(S(=O)(=O)N3CCCCC3)cc2NC(=O)/C=C/c2ccc(Cl)c([N+](=O)[O-])c2)CC1
6	CC1CCCCN1C(=O)C1CC(c2ccc(F)cc2)=NO1 (stereo not drawn)

Compound	1	2	3	4	5	6
miR-21 reporter	nt	nt	nt	-2%	nt	-45%
G9a inh	18µM*	1.3µM*	16%[0.501 µM]	nt	35µM*	12%
Lamin A splicing	nt	nt	nt	nt	nt	1%
Sfp inh	nt	nt	nt	-10%	nt	1%
KDM4E inh	nt	nt	nt	nt	nt	6%
ALDH1A1 inh	nt	nt	nt	nt	nt	0.32µM*

7	O=C(C1CC(c2ccc(F)cc2)=NO1)N1CCCCC1 (stereo not drawn)
8	COc1ccc(Cl)cc1C(=O)Nc1ccc(NC(=O)C(C)C)cc1
9	CCCCNc1nnc(SCC(=O)c2c[nH]c3ccccc23)s1
10	C=CCn1c(SCC(=O)c2ccccc2)nnc1-c1cc2ccccc2o1
11	C=CCn1c(SCC(=O)c2ccccc2)nnc1-c1ccc2c(c1)OCO2
12	CC(C)(C)C(=O)Cn1c(=O)n(CCCCCC(=O)NCc2ccccc2Cl)c(=O)c2sccc21

Compound	7	8	9	10	11	12
miR-21 reporter	-52%	-31%	-5%	-5%	-11%	11%
G9a inh	-6%[59 µM]	2%	28µM*	50µM*	20µM*	-1%[59 µM]
Lamin A splicing	-1%	-1%[46 µM]	?	-3%	3%	nt
Sfp inh	-7%	14%	3%	-23%	?	nt
KDM4E inh	5%	-4%	13%	-5%	-11%	nt
ALDH1A1 inh	1%	-5%	-3%	?	25µM*	nt

13	CCCNC(=O)CCc1c(C)nc2nc(CNC(=O)c3ccccc3)nn2c1C
14	N/C(=N\C(=S)Nc1ccccc1)c1ccccc1
15	CNC(=S)/N=C(\Nc1ccc(C)cc1)c1ccccc1
16	CNC(=S)/N=C(/Nc1ccccc1)c1ccccc1
17	Cn1c(=O)c2[nH]c(-c3ccccc3Cl)c(O)c2n(C)c1=O
18	Cn1c2c(c(=O)n(C)c1=O)C(C(F)(F)F)(C(F)(F)F)N=C(c1ccccc1Cl)N2

Compound	13	14	15	16	17	18
miR-21 reporter	-5%	-67%	-5%	-1%	-3%	-6%
G9a inh	3%[59 µM]	15%[2.33 µM]	nt	7.9µM*	45µM*	?
Lamin A splicing	nt	nt	nt	7%[46 µM]	?	8%
Sfp inh	nt	1%	7.1µM*	-85%	?	-16%
KDM4E inh	nt	nt	2%	7%	12%	-4%
ALDH1A1 inh	nt	nt	nt	-15%	-8%	2%

19	Cn1c(=O)c2[nH]c(-c3ccccc3)c(O)c2n(C)c1=O
20	CCOCCCn1c(SCC(=O)NCCCOC)nc2c(sc3ccccc32)c1=O
21	O=C(Cc1noc2ccccc12)NNC(=S)Nc1ccccc1
22	O=C(Cc1noc2ccccc12)NNC(=S)Nc1ccc(Cl)cc1
23	CC(C)(C)c1ccc(S(=O)(=O)N2CCCCC2C(=O)NCc2ccccn2)cc1 (stereo not drawn)
24	COc1ccccc1CNC(=O)C1CCC(CNS(=O)(=O)c2ccc(C)cc2)CC1 (stereo not drawn)
25	Cc1ccc(S(=O)(=O)NCC2CCC(C(=O)NCc3ccc4c(c3)OCO4)CC2)cc1 (stereo not drawn)
26	Cc1ccc(S(=O)(=O)NCC2CCC(C(=O)NCc3ccccn3)CC2)cc1 (stereo not drawn)
27	O=C(NCc1ccccn1)C1CN(S(=O)(=O)c2ccccc2)CCN1S(=O)(=O)c1ccccc1 (stereo not drawn)

Compound	19	20	21	22	23	24	25	26	27
miR-21 reporter	-3%	-3%	-5%	3%	5%	-1%	-4%	-3%	1%
G9a inh	2.2µM*	-2%[59 µM]	?	?	0%[59 µM]	-21%[2.33 µM]	-23%[59 µM]	-5%	8%
Lamin A splicing	-2%	4%[46 µM]	nt	nt	?	nt	3%	12%[46 µM]	-5%[46 µM]
Sfp inh	14µM*	nt	19%	17%	4%	10%	-21%	11%	29%
KDM4E inh	-16%	nt	2%	?	-6%	nt	14%	0%	-2%
ALDH1A1 inh	11µM*	nt	?	25µM*	4µM*	nt	7.1µM*	7.9µM*	-11%
